Conditions: rat, in vivo

- retention time in the intestine: 30 h
- time after which cleared from the stomach (po): 35 h
Substance: poly[fumaric-co-sebacic anhydride] [P(FA:SA) (20:80)]

— patent US6365187B2, “Bioadhesive microspheres and their use as drug delivery and imaging systems” (priority 1992, dated 2002)
